This experiment addresses Man-WYDLF (L37). Put plainly: inhibition of binding to horseradish peroxidase.

The IC50 is the concentration that inhibits the measured activity by half. Higher therefore signals lower potency. In turn, concanavalin A (from UniProt P02866) returned an IC50 of 4 µM.
